Consider 2 compounds from patent publication US11834463B2, “High affinity macrocyclic FKB51-inhibitors for treatment of psychiatric disorders” (priority 2020, dated 2023).

The target in the assay is T1, FKBP51FK1 (Homo sapiens, UniProt Q13451).
T1 sequence (Q13451 42-130 limits assumed): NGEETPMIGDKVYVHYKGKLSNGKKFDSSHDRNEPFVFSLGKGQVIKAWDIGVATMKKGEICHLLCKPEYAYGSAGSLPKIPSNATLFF
The assay is described as follows: biochemical. Particulars: FKBP51FK1 Ki [μM], Table 2; [a] standard error from three, [c] error from two independent measurements. The procedure:
All macrocyclic compounds were tested in a competitive fluorescence polarization assay for binding towards FKBP51 as well as the homologs FKBP12, FKBP12.6 and FKBP52 (Table 1).
Example 8: […] of the Macrocyclic FKBP51 Ligands by SPPS

The Ki is the equilibrium dissociation constant of an inhibitor or competing ligand from its target. A lower Ki goes with tighter binding.

For the compound `COc1ccc(CC[C@H]2OC(=O)[C@@H]3CCCCN3C(=O)[C@@H](C3CCCCC3)NC(=O)[C@@H]3CCCN3C(=O)COc3cccc2c3)cc1OC` [Compound 92, (9S,12R,19S,22R)-12-cyclohexyl-22-[2-(3,4-dimethoxyphenyl)ethyl]-2,21-dioxa-5,11,14-triazatetracyclo[21.3.1.0^5,9.0^14,19]heptacosa-1(26),23(27),24-triene-4,10,13,20-tetrone], the Ki came to 5.1 µM.
With `COc1ccc(CC[C@H]2OC(=O)[C@@H]3CCCCN3C(=O)[C@@H](C3CCCCC3)NC(=O)[C@H](C)NC(=O)COc3cccc2c3)cc1OC` [Compound 91, (2R,5S,12R,15S)-12-cyclohexyl-2-[2-(3,4-dimethoxyphenyl)ethyl]-15-methyl-3,19-dioxa-10,13,16-triazatricyclo[18.3.1.0^5,10]tetracosa-1(24),20,22-triene-4,11,14,17-tetrone] the figure was 17 µM.
